Data on one compound can be found in patent US11407741B2, “Compounds and their use as selective inhibitors of caspase-2” (priority 2017, dated 2022).

For the assay, the target named is T1, Caspase-3 (Homo sapiens, UniProt P42574).
T1 construct: the Caspase-2 and Caspase-3 are human recombinant active enzymes; purchased R&D Systems 707-C3-010/CF
T1 sequence (P42574 29-175 limits assumed): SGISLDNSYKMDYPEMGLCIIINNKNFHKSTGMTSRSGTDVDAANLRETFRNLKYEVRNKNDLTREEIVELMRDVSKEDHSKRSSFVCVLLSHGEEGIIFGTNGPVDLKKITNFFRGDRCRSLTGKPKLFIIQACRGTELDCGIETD
T1 sequence (P42574 176-277 limits assumed): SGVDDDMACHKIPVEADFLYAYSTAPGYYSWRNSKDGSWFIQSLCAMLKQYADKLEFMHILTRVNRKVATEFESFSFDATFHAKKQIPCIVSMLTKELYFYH
Briefly: Caspase-3 inhibition assay for reversible inhibitors (IC50, Ki). Format: biochemical. The method, then: A preliminary step in the characterization of an inhibitor is the determination of its IC50. The IC50 is the necessary concentration of an inhibitor to decrease the enzyme activity by 50% of its maximum and uninhibited value.
The compound, at different concentrations, is incubated with the enzyme and buffer for 30 minutes at 37° C. to allow formation of the Enzyme-Inhibitor complex. The reaction is initiated by addition of buffer and substrate, and then activity is measured over 15 minutes for the determination of initial velocities.
The enzyme and the inhibitor (or DMSO as control) are incubated for 30 minutes at 37° C. The complex thus formed is diluted to 100th in the buffer/substrate mixture and then the activity measurement is started over 20 minutes. The initial rate obtained for the DMSO represents the 100% activity and will serve as a reference for the quantification of the residual activity of the enzyme in the presence of the inhibitor.
The reaction is started over 20 minutes upon addition of the buffer-substrate mixture.
Initial velocity values in RFU·min^−1 are reduced to Specific Activity (SA)values (pmol/min/μg enzyme) from an AMC standard range (1 RFU→0.02 pmol). […]

Regarding `CC(=O)N[C@@H](CC(=O)O)C(=O)N[C@@H](CCC(=O)O)C(=O)N[C@H](C(=O)N[C@H](C=O)CC(=O)O)C(C)C` [Ac-DEVD-CHO], the IC50 came out at 700 ± 30 pM and the affinity, expressed as Ki, was 159 pM.
